Data on one molecule can be found in article PMC10995192 (Nature Communications, 2024).

The chains behind the UniProt entries cited, without tags or fusion partners. Residues count along the entry.
UniProt Q9H7M9, 33-311 H98A: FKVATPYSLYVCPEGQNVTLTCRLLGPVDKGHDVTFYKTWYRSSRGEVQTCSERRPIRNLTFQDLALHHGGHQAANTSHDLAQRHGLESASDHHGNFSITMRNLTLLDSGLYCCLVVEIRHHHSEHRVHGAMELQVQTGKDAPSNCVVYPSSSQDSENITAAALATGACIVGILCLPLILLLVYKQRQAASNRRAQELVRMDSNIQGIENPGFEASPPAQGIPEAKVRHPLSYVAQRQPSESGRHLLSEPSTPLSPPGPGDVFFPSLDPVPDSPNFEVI
UniProt Q9H7M9, 33-311 H100A: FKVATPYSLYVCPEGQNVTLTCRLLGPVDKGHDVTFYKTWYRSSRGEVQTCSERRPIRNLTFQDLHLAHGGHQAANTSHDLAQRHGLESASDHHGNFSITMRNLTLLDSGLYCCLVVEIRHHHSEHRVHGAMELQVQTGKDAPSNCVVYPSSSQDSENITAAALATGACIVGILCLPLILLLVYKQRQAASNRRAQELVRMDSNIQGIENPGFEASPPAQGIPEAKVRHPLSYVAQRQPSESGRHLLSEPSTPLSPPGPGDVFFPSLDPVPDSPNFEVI
UniProt Q9H7M9, 33-311 H98A/H100A: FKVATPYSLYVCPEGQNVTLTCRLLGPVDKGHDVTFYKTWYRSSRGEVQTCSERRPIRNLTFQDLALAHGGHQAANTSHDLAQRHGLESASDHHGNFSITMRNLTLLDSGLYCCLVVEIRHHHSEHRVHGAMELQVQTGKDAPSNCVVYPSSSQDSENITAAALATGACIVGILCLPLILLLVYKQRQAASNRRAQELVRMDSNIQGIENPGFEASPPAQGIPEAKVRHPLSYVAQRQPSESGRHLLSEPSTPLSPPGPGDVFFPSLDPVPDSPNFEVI
UniProt Q9H7M9, 33-311 H153A/H154A/H155A: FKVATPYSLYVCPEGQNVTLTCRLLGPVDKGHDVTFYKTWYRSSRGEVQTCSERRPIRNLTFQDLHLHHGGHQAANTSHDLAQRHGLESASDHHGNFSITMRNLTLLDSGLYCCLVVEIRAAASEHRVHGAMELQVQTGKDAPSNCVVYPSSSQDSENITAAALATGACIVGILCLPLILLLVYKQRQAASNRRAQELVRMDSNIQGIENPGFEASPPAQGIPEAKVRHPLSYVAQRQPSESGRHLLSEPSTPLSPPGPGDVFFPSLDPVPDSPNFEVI
UniProt Q9H7M9, 33-311 H98A/H100A/H117A: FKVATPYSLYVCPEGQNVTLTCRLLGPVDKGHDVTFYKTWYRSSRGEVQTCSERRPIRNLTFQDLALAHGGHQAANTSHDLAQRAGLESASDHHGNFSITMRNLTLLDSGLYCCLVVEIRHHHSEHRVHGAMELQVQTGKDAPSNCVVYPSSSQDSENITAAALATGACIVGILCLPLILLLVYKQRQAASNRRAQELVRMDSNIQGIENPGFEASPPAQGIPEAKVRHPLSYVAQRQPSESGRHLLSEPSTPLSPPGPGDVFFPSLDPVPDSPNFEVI
UniProt Q9H7M9, 33-311 H117A: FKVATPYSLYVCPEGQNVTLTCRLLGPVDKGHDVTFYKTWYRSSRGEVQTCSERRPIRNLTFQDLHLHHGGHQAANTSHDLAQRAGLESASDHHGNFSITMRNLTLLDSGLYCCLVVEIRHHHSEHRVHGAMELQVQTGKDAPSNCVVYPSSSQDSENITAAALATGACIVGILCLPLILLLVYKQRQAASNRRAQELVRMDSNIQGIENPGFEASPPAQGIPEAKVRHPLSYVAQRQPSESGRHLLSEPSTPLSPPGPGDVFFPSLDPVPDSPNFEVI
UniProt Q9H7M9, 33-311 H98A/H100A/H154A/H155A: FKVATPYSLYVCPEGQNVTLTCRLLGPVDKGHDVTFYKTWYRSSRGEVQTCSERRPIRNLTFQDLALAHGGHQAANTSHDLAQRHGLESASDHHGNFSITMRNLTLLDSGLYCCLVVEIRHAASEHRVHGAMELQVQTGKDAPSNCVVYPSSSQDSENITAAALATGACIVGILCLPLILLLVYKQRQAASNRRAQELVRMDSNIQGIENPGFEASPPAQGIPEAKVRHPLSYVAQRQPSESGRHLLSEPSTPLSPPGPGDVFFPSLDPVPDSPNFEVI
UniProt Q9H7M9, 33-311 R159A: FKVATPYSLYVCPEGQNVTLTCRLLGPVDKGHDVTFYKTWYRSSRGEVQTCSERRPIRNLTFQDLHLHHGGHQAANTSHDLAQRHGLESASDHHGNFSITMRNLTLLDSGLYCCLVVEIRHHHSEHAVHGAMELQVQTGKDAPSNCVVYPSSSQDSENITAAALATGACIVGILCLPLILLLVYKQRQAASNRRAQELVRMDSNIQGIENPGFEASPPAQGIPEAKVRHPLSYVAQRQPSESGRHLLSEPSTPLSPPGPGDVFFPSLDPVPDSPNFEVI
UniProt Q9H7M9, 33-311 F94A: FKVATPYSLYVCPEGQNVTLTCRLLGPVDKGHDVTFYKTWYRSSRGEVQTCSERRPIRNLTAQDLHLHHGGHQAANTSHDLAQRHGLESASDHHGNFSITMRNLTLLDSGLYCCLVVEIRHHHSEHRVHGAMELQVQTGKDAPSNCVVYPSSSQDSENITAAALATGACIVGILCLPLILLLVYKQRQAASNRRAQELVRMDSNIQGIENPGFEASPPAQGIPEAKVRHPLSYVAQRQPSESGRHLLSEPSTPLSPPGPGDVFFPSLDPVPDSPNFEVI

By Kd is commonly meant the constant that tells how readily two partners part at equilibrium.

Holding throughout (assay): SPR; SNS-101 captured on IgG capture chip, VISTA-His variants flowed; 25 °C, PBS with 0.05% Tween 20; pH of the variant series not given; 1:1 Langmuir MTL fit
Common to all, as to conditions: both partners purified

The target in assay [1] is T1, VISTA-His variant His98Ala (Homo sapiens, UniProt Q9H7M9, His98).
T1 construct: VISTA, human; residue mutated to alanine; as m4 with the change; also called His98 single mutant; source: Expi293, purified (Ni-NTA)

Assay [2] deals with T2, VISTA-His variant His100Ala (Homo sapiens, UniProt Q9H7M9, His100).
T2 construct: VISTA, human; residue mutated to alanine; as m4 with the change; also called His100 single mutant; source: Expi293, purified (Ni-NTA)

For assay [3], the target named is T3, VISTA-His variant His98Ala/His100Ala (Homo sapiens, UniProt Q9H7M9, His98Ala | His100Ala).
T3 construct: VISTA, human; as m4 with the changes; also called double histidine mutant; source: Expi293, purified (Ni-NTA)

For assay [4], the target named is T4, VISTA-His variant His153Ala/His154Ala/His155Ala (Homo sapiens, UniProt Q9H7M9, His153Ala | His154Ala | His155Ala).
T4 construct: VISTA, human; as m4 with the changes; also called triple histidine mutant; source: Expi293, purified (Ni-NTA)

For assay [5], the target named is T5, VISTA-His variant His98Ala/His100Ala/His117Ala (Homo sapiens, UniProt Q9H7M9, His98Ala | His100Ala | His117Ala).
T5 construct: VISTA, human; as m4 with the changes; also called His98Ala/His100Ala combined with His117Ala; source: Expi293, purified (Ni-NTA)

Assay [6] deals with T6, VISTA-His variant His117Ala (Homo sapiens, UniProt Q9H7M9, His117).
T6 construct: VISTA, human; residue mutated to alanine; as m4 with the change; also called His117 single mutant; source: Expi293, purified (Ni-NTA)

In assay [7] the target is T7, VISTA-His variant His98Ala/His100Ala/His154Ala/His155Ala (Homo sapiens, UniProt Q9H7M9, His98Ala | His100Ala | His154Ala | His155Ala).
T7 construct: VISTA, human; as m4 with the changes; also called His98Ala/His100Ala combined with His154Ala/His155Ala; source: Expi293, purified (Ni-NTA)

Assay [8] has as its target T8, VISTA-His variant Arg159Ala (Homo sapiens, UniProt Q9H7M9, Arg159Ala).
T8 construct: VISTA, human; as m4 with the change; also called Arg159 mutant; source: Expi293, purified (Ni-NTA)

The target in assay [9] is T9, VISTA-His variant Phe94Ala (Homo sapiens, UniProt Q9H7M9, Phe94Ala).
T9 construct: VISTA, human; as m4 with the change; also called Phe94 mutant; source: Expi293, purified (Ni-NTA)

B1: SNS-101, fully human monoclonal IgG1 kappa antibody against VISTA (antibody, V domains shown)
VH: EVQLVESGGGLVQPGGSLRLSCAASGFTFDDYSMNWVRQAPGKGLEWVSYISSDADTIYYADSVKGRFTISRDNAKNSLYLQMNSLRAEDTAVYYCAREAGGVLGRVDFQHWGQGTLVTVSS
VL: DIQLTQSPSSLSASVGDRVTITCQASQDISNYLNWYQQKPGKAPKLLIYDASNLGTGVPSRFSGSGSGTDFTFTISSLQPEDIATYYCQQADFVPPWTFGGGTKVEIK
Regarding B1, the dissociation constant (Kd) in assay [1] was 9.5 nM; in assay [2] it was 7.5 nM; in assay [3] it was 23 nM; in assay [4], 17 nM; in [5], 90 nM; in assay [6], 4.7 nM. Moreover, the Kd in assay [7] amounted to 166 nM; in assay [8], 122 nM; in [9] it was 59 nM.
